Laboratory results as given in ChEMBL document CHEMBL1165889, “Azetidine derivatives as novel gamma-aminobutyric acid uptake inhibitors: synthesis, biological evaluation, and structure-activity relationship” (Eur J Med Chem, 2010).

The chains behind the UniProt entries cited, without tags or fusion partners. Where a name states a change or a piece, a line headed by the entry shows the natural chain unless it says otherwise.
UniProt P30531: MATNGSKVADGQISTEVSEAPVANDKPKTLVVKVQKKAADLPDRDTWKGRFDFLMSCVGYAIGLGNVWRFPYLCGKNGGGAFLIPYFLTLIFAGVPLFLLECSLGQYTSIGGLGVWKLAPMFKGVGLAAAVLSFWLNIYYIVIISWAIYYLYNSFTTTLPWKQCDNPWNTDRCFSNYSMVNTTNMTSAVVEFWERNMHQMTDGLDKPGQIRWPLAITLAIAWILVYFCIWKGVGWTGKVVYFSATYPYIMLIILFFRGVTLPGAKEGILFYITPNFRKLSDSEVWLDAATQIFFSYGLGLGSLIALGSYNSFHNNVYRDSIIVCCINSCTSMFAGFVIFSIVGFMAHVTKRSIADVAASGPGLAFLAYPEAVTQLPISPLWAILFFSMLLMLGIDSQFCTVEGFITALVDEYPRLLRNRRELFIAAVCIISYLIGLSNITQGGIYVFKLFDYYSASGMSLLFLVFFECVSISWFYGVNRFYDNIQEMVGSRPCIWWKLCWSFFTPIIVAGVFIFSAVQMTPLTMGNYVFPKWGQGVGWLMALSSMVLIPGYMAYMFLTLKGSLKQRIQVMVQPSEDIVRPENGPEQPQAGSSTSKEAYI

Molecular target: Sodium- and chloride-dependent GABA transporter 1 (Homo sapiens, UniProt P30531)
Experiment: Binding affinity to GAT1

- IC50: 200 nM
Structure (SMILES): O=C(O)C1CCCN(CCC=C(c2ccccc2)c2ccccc2)C1 (stereo unspecified)
